Screening data (PubChem BioAssay)
Hits are enriched below; roughly 0.46% of the tested compounds scored in any of these assays.
GIV-Gai inh = inhibitors of GIV GBA-motif binding to rat Galpha-i3. 210,000 tested, 0.42% active. percent of control (FP), % (concentration not given with the values). AID 1224905. Galpha-i3/FITC-GIV peptide fluorescence polarization, 90 min; active compounds read low; scaled: aluminum fluoride 0%, vehicle 100%;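 active = replicate mean at 85% of control or lower, very high polarization wells dropped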;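 note: wells of about 15 µL received 100 nL stock; the first replicate is given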
HCMV UL50-53 inh = inhibitors of HCMV UL50-UL53 nuclear egress complex interaction | inhibition, % (no concentration beside the values) | HTRF UL50-UL53 interaction, normalized percent inhibition | AID 1918969 | hit rate 0.15% among 190,000; in the data active = inhibition above about 27%, passing the limit was not always enough
Numbers stand for hits; - = inactive; . = no result given.

SMILES | GIV-Gai inh | HCMV UL50-53 inh
COc1cccc(/C(O)=C/c2nc3ccc(C(=O)N4CCN(C5CCCCC5)CC4)cc3[nH]c2=O)c1 | - | -
COc1cccc(/C(O)=C/c2nc3ccc(C(=O)N4CCN(c5ccccn5)CC4)cc3[nH]c2=O)c1 | 55 | -
CCN1CCCC1CNC(=O)CN1C(=O)CN(C(=O)Nc2ccc(F)cc2)c2ccccc21 (stereo not drawn) | - | .
CCOc1ccc(C(=O)c2[nH]c(=O)c3ccccc3c2O)cc1 | - | 61
CCOc1ccc(C(=O)c2cccs2)cc1 | - | -
COc1ccccc1N=Cc1sc2ccccc2c1O | -53 | -
CCOc1ccc(N=Cc2sc3ccccc3c2O)cc1 | -15 | -
COc1ccc(N=Cc2sc3ccccc3c2Cl)cc1 | . | -
Cc1ccccc1N=Cc1sc2ccccc2c1O | - | -
O=C(CS(=O)(=O)c1cccc2nsnc12)Nc1cccnc1 | - | .
O=C(NCc1ccc2c(c1)OCO2)c1ccc(CN2C(=O)CCn3nc(-c4ccc(Cl)cc4)cc32)cc1 | - | -
COc1ccc(-n2ccnc2SCC(=O)N2CCCC2c2cccs2)cc1 (stereo not drawn) | . | -
Clc1ccc(N=c2oc3ccccc3cc2-c2nc3ccccc3s2)cc1 | - | .
CC1CCC(Nc2ccc(S(=O)(=O)N3CCOCC3)cn2)CC1 (stereo not drawn) | . | -
O=C1/C(=C/c2cccs2)CN(Cc2ccccc2)C/C1=C\c1cccs1 | - | -
Cn1cccc1/C=C1\CN(Cc2ccccc2)C/C(=C\c2cccn2C)C1=O | -88 | -
CC1C/C(=C/c2cccn2C)C(=O)/C(=C/c2cccn2C)C1 (stereo not drawn) | -75 | .
Cn1cccc1/C=C1\CC(c2ccccc2)C/C(=C\c2cccn2C)C1=O (stereo not drawn) | - | -
COc1ccc(NC(C)=O)cc1CN1CCn2c(nc3ccccc32)C1 | - | -
Cc1cccc(NC(=O)c2sc3nc(-c4cc5ccc(O)cc5oc4=O)[nH]c(=O)c3c2C)c1 | -66 | -
Cc1cc(C)cc(NC(=O)c2sc3nc(-c4cc5ccccc5oc4=O)[nH]c(=O)c3c2C)c1 | - | -
CN1/C(=C\C(=O)c2ccccc2)C(C)(C)c2ccccc21 | . | -
CCn1c(/C=C/C=C2\N(C)c3ccccc3C2(C)C)[n+](Cc2ccccc2)c2ccccc21 | -32 | .
CN1/C(=C/C=C/C=C/C=[N+](C)c2ccccc2)C(C)(C)c2ccccc21 | - | .
CC[n+]1c(/C=C/C=C2\N(C)c3ccccc3C2(C)C)n(-c2ccccc2)c2ccc(C)cc21 | -32 | .
SMILES | GIV-Gai inh | HCMV UL50-53 inh
CC[n+]1c(/C=C/C=C2\N(C)c3ccccc3C2(C)C)n(-c2ccccc2)c2cc(Cl)ccc21 | -32 | .
CCn1c(C)[n+](CC)c2ccc(Cl)cc21 | . | -
CC(C)[C@H](N)c1nnc(SCC(=O)N(C)C)o1 | - | -
Cc1cc(C)c(/C=C/c2onc(C)c2S(=O)(=O)N2CCCC(C(=O)N3CCc4ccccc43)C2)c(C)c1 (stereo not drawn) | - | -
NNC(=O)COc1c(Br)cc(Br)c2cccnc12 | . | -
Nc1c(Br)cc(Br)c2cccnc12 | - | 58
Cc1ccc(-c2csc(NC(=O)c3coc4ccccc4c3=O)n2)o1 | . | -
O=CN(/C=C1\Sc2ccccc2C1=O)c1cccc2ccccc12 | -0.2 | -
CCC(=O)N(C)/C=C1\Sc2ccccc2C1=O | - | -
CN(C)c1ccc(/C=C(/C#N)c2ccc(C#N)cc2)cc1 | 11 | -
CN(C)c1ccc(/C=C(\C#N)c2nc3ccccc3c(=O)[nH]2)cc1 | - | -
CN(C)c1ccc(/C=C(\C#N)C(N)=O)cc1 | . | -
CN(C)c1ccc(/C=C(\C#N)C(N)=C(C#N)C#N)cc1 | -24 | .
CCOC(=O)COc1cc2oc(=O)c3c(c2cc1CC)CCCC3 | - | .
Cc1ccc(CNS(=O)(=O)c2ccc3c(c2)C(C)(C)CN3CC(=O)N2CCCC2)o1 | - | .
Cc1noc(C)c1CSc1nc2ccccc2c(=O)n1C(C)C | . | -
CNc1nc(SCc2c(C)noc2C)nc2ccccc12 | . | 51
Cc1ccc(-c2nc3ccccc3s2)cc1 | . | -
CC(C)N1CCc2c(sc(NC(=O)C3=COCCO3)c2C(N)=O)C1 | - | -
CC(C)N1CCc2c(sc(N)c2C(N)=O)C1 | -67 | .
CCOC(=O)C1=C(N)OC2=C(C(=O)CC(c3ccccc3)C2)C1c1ccc(Cl)cc1 (stereo not drawn) | - | -
Cc1ccc(C(=O)OC2=C(c3ccccc3)C(=O)c3ccccc3C2=O)cc1 | - | .
Cc1ccc(C(=O)OC2=CC(=O)c3ccccc3C2=O)cc1 | 84 | -
O=C1C(=O)N(C2CCN(S(=O)(=O)Cc3ccccc3)CC2)CCN1Cc1cccc(F)c1 | - | -
COc1ccc(/C=c2/sc3nc(=O)cnn3c2=O)cc1 | - | .
SMILES | GIV-Gai inh | HCMV UL50-53 inh
Cc1ccc(/C=c2/sc3nc(=O)cnn3c2=O)cc1 | - | 72
CC(C)CN1CCOC(CNCc2ccc(-c3nc4ccccc4s3)o2)C1 (stereo not drawn) | . | -
O=C(O)CN1C(=O)/C(=C\c2cc([N+](=O)[O-])cc(Br)c2O)SC1=S | -59 | -
O=C1/C(=C/c2cc([N+](=O)[O-])cc(Br)c2O)SC(=S)N1c1ccc([N+](=O)[O-])cc1 | - | -
Cc1ccc(C)c(N2CCN(C(=O)c3cccn4c(=O)c5ccccc5nc34)CC2)c1 | - | .
CCOC(=O)N1CCN(C(=O)c2cccn3c(=O)c4cc5ccccc5cc4nc23)CC1 | 24 | .
CCN1CCCC1CNC(=O)C1CCN(c2nnc(C)c3c(C)n(-c4ccc(C)cc4)nc23)CC1 (stereo not drawn) | - | -
CCOc1cc(/C=C2/C(=O)N(c3ccccc3)N=C2C)ccc1OS(=O)(=O)c1ccccc1 | - | 60
COc1cc(/C=C2/C(=O)N(c3ccccc3)N=C2C)ccc1OS(=O)(=O)c1ccccc1[N+](=O)[O-] | - | -
CN1c2cc(Cl)ccc2-c2nc(SCC(=O)Nc3ccc(F)cc3F)ncc2S1(=O)=O | - | .
Cc1ccc(NC(=O)CSc2ncc3c(n2)-c2ccc(Cl)cc2N(C)S3(=O)=O)cc1F | - | .
CN1c2cc(Cl)ccc2-c2nc(SCC(=O)Nc3cc(F)ccc3F)ncc2S1(=O)=O | - | 78
CN1c2cc(Cl)ccc2-c2nc(SCC(=O)Nc3nccs3)ncc2S1(=O)=O | - | 36
O=C(COC(=O)Cn1cc(C(F)(F)F)ccc1=O)NCc1ccco1 | . | -
CCOc1cc(C2C(C(=O)OC)=C(C)NC3=C2C(=O)CC(c2ccc(OC)cc2)C3)ccc1OC(C)=O (stereo not drawn) | - | -
COC(=O)c1ccc(NC(=O)COC(=O)c2cccc(N(C)C)c2)cc1 | . | -
NC(=O)CSc1ccc2nnc(-c3ccccc3)n2n1 | . | -
O=C(CSc1ccc2nnc(-c3ccccc3)n2n1)NC1CCCC1 | - | 34
COC(=O)c1ccc(COC(=O)c2n[nH]c3ccccc23)o1 | . | -
O=C(O)COc1ncnc2ccccc12 | - | -
CCSC1=N/C(=C\c2ccc(C(=O)O)cc2)C(=O)S1 | - | .
CCSC1=N/C(=C\c2ccc(N(C)C)cc2)C(=O)S1 | 28 | -
COCCN1C(=S)NC2c3ccccc3OC13CCCC23 (stereo not drawn) | - | .
CCCN1C(=O)/C(=C/C=C2/Oc3ccccc3N2CCC(=O)O)N(CCO)C1=S | -18 | .
CCN1/C(=C/C=C2\SC(=S)N(C)C2=O)Oc2ccccc21 | - | -
COc1cc2cc3c4c(cc(OC)c(OC)c4c2cc1OC)CCN3C | . | 67
COc1cc2ccc3c(CCN(C)C)cc(OC)c(OC)c3c2cc1OC | - | .
